Reference: ChEMBL document CHEMBL1156305, “Orally active and brain permeable proline amides as highly selective 5HT2c agonists for the treatment of obesity” (Bioorg Med Chem Lett, 2010)

By UniProt entry, the sequences of proteins in these tests, tags left out.
UniProt P28223, whole entry: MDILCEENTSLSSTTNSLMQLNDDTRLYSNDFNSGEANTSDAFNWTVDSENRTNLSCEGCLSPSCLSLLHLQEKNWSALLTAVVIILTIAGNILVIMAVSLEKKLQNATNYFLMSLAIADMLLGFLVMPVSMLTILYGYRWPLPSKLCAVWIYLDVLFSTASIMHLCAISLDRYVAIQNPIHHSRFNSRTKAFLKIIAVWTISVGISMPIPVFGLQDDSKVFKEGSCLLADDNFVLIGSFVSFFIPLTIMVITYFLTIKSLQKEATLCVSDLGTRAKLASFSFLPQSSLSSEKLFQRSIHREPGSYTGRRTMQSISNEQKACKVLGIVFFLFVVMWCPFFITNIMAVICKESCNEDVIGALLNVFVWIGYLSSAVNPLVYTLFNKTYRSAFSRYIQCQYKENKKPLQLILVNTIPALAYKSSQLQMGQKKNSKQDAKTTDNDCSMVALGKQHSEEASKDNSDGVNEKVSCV

Target: 5-hydroxytryptamine receptor 2A (Homo sapiens, UniProt P28223)
Assay: Agonist activity at 5HT2A receptor relative to control
Assay type: functional

**Q.** With C[C@H]1CC[C@@H](Oc2c(F)cc(CNC(=O)[C@@H]3CCCN3)cc2F)CC1 as the molecule, how does the Activity read?
**A.** 99%

**Q.** For COc1cc(OCC2CCCCC2)c(F)cc1CNC(=O)[C@@H]1CCCN1, which Activity is on record?
**A.** 67%
